Experimental data reported in patent US7560262B2, “Polynucleotide sequences encoding alkaline α-galactosidases and methods of using same” (The State of Israel - Ministry of Agriculture & Rural …, priority 2002, dated 2009).

System: 6-O-α-D-galactopyranosyl-D-glucose
Assay: purified protein, by the assay type
Conditions: other: recombinant Aga-I, pH 8, Lineweaver-Burk plots

Substance: recombinant Aga-I (alkaline-α-galactosidase I) (Cucumis melo)
- Km: 6 mM
